Earlier results as cited in patent publication EP4818190A1, “TRISACCHARIDE LINKER, LINKER-PAYLOAD COMPRISING TRISACCHARIDE LINKER, AND GLYCAN CHAIN-REMODELED ANTIBODY-DRUG CONJUGATE, AND PREPARATION METHODS THEREFOR AND USES THEREOF” (priority 2023, dated 2025).

Columns and labels:
[1] = tested on: HER2-positive breast cancer; conditions: patients who received at least two targeted HER2 therapies and exhibited drug resistance; cited from earlier work
[2] = tested on: metastatic breast cancer with low HER2 expression; conditions: as compared to standard chemotherapies; cited from earlier work

Enhertu
overall response rate [1]: 60.3% | reduction of the risk of death or tumor progression [2]: 50%
